The numbers were not newly measured in patent US4755385A, “Oral pharmaceutical preparations containing 9-deoxo-11-deoxy-9,11-[imino[2-(2-methoxyethoxy)-ethylidene]-oxy]-(9S)-e rythromycin” (priority 1985, dated 1988), which cites them from elsewhere.

Molecules are shown by their SMILES.

For the series the following is noted: compared with other antibiotics of same structural type, e.g. erythromycin; cited from earlier work.

Regarding `CC[C@H]1OC(=O)[C@H](C)[C@@H](O[C@H]2C[C@@](C)(OC)[C@@H](O)[C@H](C)O2)[C@H](C)[C@@H](O[C@@H]2O[C@H](C)C[C@H](N(C)C)[C@H]2O)[C@](C)(O)C[C@@H](C)[C@@H]2NC(COCCOC)O[C@H]([C@H]2C)[C@]1(C)O` (stereo partly drawn) [AS-E 136, 9-deoxo-11-deoxy-9,11-[imino[2-(2-methoxyethoxy)-ethylidene]oxy]-(9S)-erythromycin], the tissue levels entry was “exceptionally high and long-lasting tissue levels”.
